GIV-Gai inh: GIV-Galpha-i interaction inhibition; AID 1224905; 210,000 tested, 0.42% active; Galpha-i3/FITC-GIV peptide fluorescence polarization, 90 min; stronger effect = lower value; scaled: aluminum fluoride 0%, vehicle 100%; percent of control (FP), % (concentration not given with the values);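 active = replicate mean at 85% of control or lower, very high polarization wells dropped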;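 also: wells of about 15 µL received 100 nL stock; the first replicate is given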
HCMV NEC inh: inhibitors of HCMV UL50-UL53 nuclear egress complex interaction; 0.15% of 190,000 active; AID 1918969; inhibition, % (test concentration not listed); HTRF UL50-UL53 interaction, normalized percent inhibition; in the data active = inhibition above about 27%, passing the limit was not always enough
GIV Gai FP conf: GIV-Galpha-i3 inhibition, FP confirmation. shares compounds with GIV-Gai inh. FITC-GIV peptide binding to Galphai3, fluorescence polarization; stronger effect = lower value. fluorescence polarization, mP at 100 µM. 38% of 580 active. AID 1259350;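 active = inhibition score of 15 or more, meaning 100 minus mean polarization as percent of control over three replicates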
GIV-Gai AS conf: GIV-Galpha-i3 inhibition, AlphaScreen confirmation; shares compounds with GIV-Gai inh; AlphaScreen Galphai3-GIV binding, purified proteins, 90 min; stronger effect = lower value; AID 1259351; 39% of 580 active; AlphaScreen counts at 100 µM;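 active = inhibition score at or above a set limit, where the score is 100 minus the three-replicate mean percent of control signal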
The depositor's hits bear a star; · = no result given. Only some compounds are listed: those with a hit (about 0.43% of all), similar ones and a draw of the others.

[1] COc1ccc(/C=C2\C=C(c3ccccc3)N(c3ccc(O)cc3)C2=O)cc1Br
[2] COc1ccc(/C=C2\C=C(c3ccccc3)N(c3cccnc3)C2=O)cc1Br
[3] COc1ccc(N2C(=O)/C(=C/c3ccc(Cl)cc3)C=C2c2ccccc2)cc1
[4] COc1ccc(/C=C2\C=C(c3ccccc3)N(c3ccc(Cl)c(Cl)c3)C2=O)cc1Br
[5] COc1ccc(/C=C2\C=C(c3ccccc3)N(c3ccc(Br)cc3)C2=O)cc1
[6] CC(C)(C)c1ccc(S(=O)(=O)N=S2CCN(c3ncc(C(F)(F)F)cc3Cl)CC2)cc1
[7] CC(=O)OC(COc1ccccc1C)Cn1cnc2ccccc21 (configuration not stated)
[8] CCC1(C)CC(CCNCc2ccc(N(C)C)cc2)(c2ccccc2OC)CCO1 (configuration not stated)
Screen / compound no.,1,2,3,4,5,6,7,8
GIV-Gai inh,111.2,44.3*,82.5*,119.4,102.1,103.7,100.5,111.2
HCMV NEC inh,·,·,·,·,·,-37.8,-4.4,·
GIV Gai FP conf,·,66,76.6,·,·,·,·,·
GIV-Gai AS conf,·,45797,32406,·,·,·,·,·

[9] CCOC(=O)c1c(NC(=O)COc2ccc(Cl)cc2)sc(C(=O)Nc2cccc(Cl)c2C)c1C
[10] CC1C/C(=N\O)C(C(C)C)C/C1=N/O (configuration not stated)
[11] Cc1ccc(C(=O)NCC(=O)Nc2cc(S(=O)(=O)N3CCCC3)sc2C)cc1
[12] Cc1ccc(NC(=O)NCc2noc3ccccc23)cc1F
[13] N#Cc1c(/N=C/c2ccc(Cl)c(Cl)c2)oc(-c2ccccc2)c1-c1ccccc1
[14] N#Cc1c(/N=C/c2ccccc2)oc(-c2ccccc2)c1-c1ccccc1
[15] CSc1scc2c1C(=O)/C(=C/N(C)C)CC2
[16] CSc1scc2c1C(=O)CC(C)(C)C2
Screen / compound no.,9,10,11,12,13,14,15,16
GIV-Gai inh,101.1,·,102.4,111.0,73.0*,113.2,14.2*,103.2
HCMV NEC inh,-10.7,-35.1,·,-9.0,·,·,-84.3,-8.5
GIV Gai FP conf,·,·,·,·,11.6*,·,29*,·
GIV-Gai AS conf,·,·,·,·,46826,·,1880*,·

[17] O=C(CSc1nc(-c2ccccc2)cs1)N1CCN(S(=O)(=O)c2ccccc2)CC1
[18] O=C(CSc1nc(-c2ccccc2)cs1)N1CCOCC1
[19] Cc1ccc(NC(=S)Nc2cccc(C(F)(F)F)c2)cc1NS(C)(=O)=O
[20] COC(CNC(=S)Nc1cccc(C(F)(F)F)c1)OC
[21] Nc1cccc2c1C(=O)N(CCO)C2=O
[22] Nc1cccc2c1C(=O)N(CC(=O)N1CCc3ccccc31)C2=O
[23] CCS(=O)(=O)N1CCCc2cc(C(=O)Nc3cc(OC)c(OC)cc3C(=O)OC)ccc21
[24] CCN1/C(=C\C=C\c2n(CC)c3cc(Cl)c(Cl)cc3[n+]2CCCS(=O)(=O)[O-])N(CCCS(=O)(=O)O)c2cc(Cl)c(Cl)cc21
Screen / compound no.,17,18,19,20,21,22,23,24
GIV-Gai inh,·,89.6,68.9*,103.6,74.8*,·,97.1,79.2*
HCMV NEC inh,-23.5,-2.5,74.5*,-1.6,-65.1,-10.5,3.3,·
GIV Gai FP conf,·,73.1,50*,·,55.4*,·,·,74.4
GIV-Gai AS conf,·,49138,38510,·,50751,·,·,10331*

[25] O=c1[nH]c(SCCO)nc2sc3c(c12)CCCC3
[26] O=C(O)CC(Sc1nc2sc3c(c2c(=O)[nH]1)CCCC3)C(=O)O (configuration not stated)
[27] CC(=O)NS(=O)(=O)c1ccc(N2C(=O)CC(Sc3nc4ccccc4s3)C2=O)cc1 (configuration not stated)
[28] CCN1CCN(CCNC(=O)C2CCCN(C(=O)c3[nH]c(C)c(C(=O)OC)c3C)C2)CC1 (configuration not stated)
[29] Cc1ccc2c(c1)c1c(n2C)C(C#N)CCC1 (configuration not stated)
[30] Cc1ccc2c(c1)c1c3c(nccn32)CCC1
[31] CCOC(=O)c1c(C)n(OCc2ccccc2)c2ccc3nonc3c12
[32] c1ccc(COn2c3c(c4c5nonc5ccc42)CCCC3)cc1
Screen / compound no.,25,26,27,28,29,30,31,32
GIV-Gai inh,·,75.1*,110.0,96.0,96.4,76.5*,99.3,52.0*
HCMV NEC inh,0.5,·,5.6,-20.0,-11.7,-40.0,·,-33.8
GIV Gai FP conf,·,51.5*,·,·,·,60.6*,·,48.7*
GIV-Gai AS conf,·,16638*,·,·,·,13099,·,18180*

Some of the entries above in another layout.
[27] CC(=O)NS(=O)(=O)c1ccc(N2C(=O)CC(Sc3nc4ccccc4s3)C2=O)cc1 (configuration not stated)
- GIV-Gai inh = 110.0
- HCMV NEC inh = 5.6
- GIV Gai FP conf = ·
- GIV-Gai AS conf = ·

[28] CCN1CCN(CCNC(=O)C2CCCN(C(=O)c3[nH]c(C)c(C(=O)OC)c3C)C2)CC1 (configuration not stated)
- GIV-Gai inh = 96.0
- HCMV NEC inh = -20.0
- GIV Gai FP conf = ·
- GIV-Gai AS conf = ·

[29] Cc1ccc2c(c1)c1c(n2C)C(C#N)CCC1 (configuration not stated)
- GIV-Gai inh = 96.4
- HCMV NEC inh = -11.7
- GIV Gai FP conf = ·
- GIV-Gai AS conf = ·

Next section:
[33] O=C(NC1CCCCC1)c1cc2occc2c(Nc2ccc(Cl)cc2)n1
[34] N#C/C(=C\C=C\c1ccco1)C(N)=S
[35] N#CC(C#N)=C(N)/C(C#N)=C/c1ccco1
[36] C=CCSc1ncc(Cl)c(C(=O)Nc2sc3c(c2C(=O)OC)CCC3)n1
[37] C=CCSc1ncc(Cl)c(C(=O)Nc2sc3c(c2C(=O)OC)CCCC3)n1
[38] CC1C(C#N)=C(SCC#N)NC2=C1C(=O)CC(C)(C)C2 (configuration not stated)
[39] Oc1ccccc1C=Nc1cccnc1
[40] Oc1ccc(N=Cc2ccccc2O)cc1
Screen / compound no.,33,34,35,36,37,38,39,40
GIV-Gai inh,103.7,78.3*,112.0,105.5,85.1*,96.9,82.8*,103.8
HCMV NEC inh,-13.3,51.4,-69.1,1.4,-18.1,-21.3,-5.1,7.0
GIV Gai FP conf,·,50.4*,·,·,61.9,·,42.2*,·
GIV-Gai AS conf,·,2145*,·,·,43255,·,16309*,·

[41] Cc1cc(NC(=O)CCc2nc(CSc3nnc(-c4cccnc4)o3)no2)no1
[42] N#CC1=C(SCc2ccccc2)SC(CO)NC1=O (configuration not stated)
[43] N#CC1=C(SCc2ccccc2)SC(c2ccc(C(=O)O)cc2)NC1=O (configuration not stated)
[44] COCCn1c(C)cc(C=C2C(=O)N(C)C(=S)N(C)C2=O)c1C
[45] COCCn1c(C)cc(C=C2C(=O)NC(=O)NC2=O)c1C
[46] CC1CCN(CCCNC(=O)C2CCc3sc(C(=O)N(C)C)cc3C2)CC1 (configuration not stated)
[47] Cc1nnsc1C(=O)N1CCc2[nH]c3ccc(F)cc3c2C1
[48] C=CCNC(=O)N1CCc2[nH]c3ccc(F)cc3c2C1
Screen / compound no.,41,42,43,44,45,46,47,48
GIV-Gai inh,103.2,106.5,73.9*,92.7,98.1,107.9,99.4,85.3*
HCMV NEC inh,·,-15.3,·,·,-35.1,·,-12.3,-36.1
GIV Gai FP conf,·,·,64.5,70.3,·,·,·,58.6*
GIV-Gai AS conf,·,·,28170*,21525*,·,·,·,37919

[49] CCN(CC)c1ccc(C(=O)N=c2sc3c4ccccc4ccc3n2C)cc1
[50] CCN1C(C(=O)c2ccccc2)=C(NC(=O)c2ccccc2)c2ccccc2S1(=O)=O
[51] CCCCCN1C(C(=O)c2ccccc2)=C(NC(=O)c2ccc(C)cc2)c2ccccc2S1(=O)=O
[52] Cn1c(=O)n(C)c2cc(Oc3ccccc3)c(NC(=O)NC3CCCCC3)cc21
[53] O=C(CCN1C(=O)/C(=C/c2ccc3c(c2)OCO3)SC1=S)Nc1ccccc1
[54] O=C(CCN1C(=O)/C(=C/c2ccc3c(c2)OCO3)SC1=S)NC1=NCCS1
[55] COc1ccc(C(=O)CSc2nnc(-c3ccco3)c(-c3ccco3)n2)cc1
[56] O=C(CSc1nnc(-c2ccco2)c(-c2ccco2)n1)Nc1ccc(C(=O)O)cc1
Screen / compound no.,49,50,51,52,53,54,55,56
GIV-Gai inh,99.7,54.7*,106.2,108.6,·,83.7*,111.1,76.9*
HCMV NEC inh,·,-4.3,-7.3,-9.3,-8.4,-50.6,·,-64.5
GIV Gai FP conf,·,20.4*,·,·,·,59.8,·,60*
GIV-Gai AS conf,·,46797,·,·,·,47879,·,2995*

[57] CC(C)Oc1ccc(CNC(=O)CCCN2CCSc3ccccc32)cc1
[58] Cc1cc(C(F)(F)F)[nH]c(=O)c1C#N
[59] Cc1cc(C(F)(F)F)c(C#N)c(=O)[nH]1
[60] Cc1cc2c(=O)[nH]nc(N)c2c(=O)[nH]1
[61] Nc1n[nH]c2cc(=O)[nH]c(O)c12
[62] O=C(/C=C/c1ccc2c(c1)OCCO2)NC1CCCCC1
[63] COCCn1cc2c3c(cccc31)CN(C(=O)NCC1CCCO1)CC2 (configuration not stated)
Screen / compound no.,57,58,59,60,61,62,63
GIV-Gai inh,108.2,·,40.2*,104.6,47.5*,·,81.3*
HCMV NEC inh,-13.5,-9.5,·,-21.9,110.1*,0.0,·
GIV Gai FP conf,·,·,66.2,·,45.3*,·,60.2*
GIV-Gai AS conf,·,·,51023,·,7988*,·,20045

Copied from the list:
no. 62 | HCMV NEC inh = 0.0
no. 63 | GIV-Gai inh = 81.3*
no. 61 | HCMV NEC inh = 110.1*
no. 58 | HCMV NEC inh = -9.5

Screening data: PubChem, ICCB-Longwood Screening Facility, Harvard Medical School
